The target in test [1] is α4β1 integrin (Jurkat T-cell adhesion to IL-1 stimulated endothelial cell monolayers) (Homo sapiens, UniProt P05556+P13612). As to the kind of experiment: Jurkat-Endothelial Cell Adhesion Assay (Jurkat EC). The conditions noted are these: read-out: IC50 Jurkat EC; Jurkat cells on IL-1 stimulated HUVEC monolayers. How it is done:
The following assay established the activity of the present compounds in inhibiting β1-mediated cell adhesion in a representative in vitro system. This assay measures the adhesive interactions of a T-cell line, Jurkat, known to express the α4β1 integrin, to endothelial monolayers in the presence of test compounds. The test compounds were added in increasing concentrations to T-cells and then the T-cell compound mixture was added to IL-1 stimulated endothelial cell monolayers. The plates were incubated, washed and the percentage of attached cells was quantitated. […] Human umbilical vein endothelial cells were purchased from Clonetics (San Diego, Calif.) at passage number 2. The cells were grown on 0.5% porcine skin gelatin pre-coated flasks (Sigma, St. Louis Mo.) in EGM-UV media (Clonetics, San Diego, Calif.) supplemented with 10% fetal bovine serum. Cells are refed every 2-3 days reaching confluence by day 4 to 6. […] The endothelial cells are not used following passage 6. Am The T-cell line Jurkat was obtained from American Type Tissue Culture Collection (Rockville, Md.) and the cells were cultured in RPMI containing 10% fetal calf serum. The cells were washed twice in Hank's Balanced Salt Solution (HBSS) and resuspended in Dulbecco's […] Eagle's Media (DMEM) containing 2.5 mg/ml Human Serum Albumin (HSA). Jurkat cells (1×10^6 cells/ml) were stained with 10 ng/ml BCECF-AM z z (Molecular Probes, Eugene, Ore.)) in HBSS without phenol red. The cells were loaded with BCECF for 60 minutes in the dark at 37° C., washed 2 times, and resusupended in DMEM-HSA solution.
Confluent endothelial monolayers, grown in 96-well tissue culture plates, were stimulated for 4 hr. at 37° C. with 0.1 ng/ml (˜50 U/ml) recombinant IL-1 (Amgen, Thousand Oaks, Calif.). Following this incubation, the monolayers were washed twice with HBSS and 0.1 ml of DMEM-HSA solution was added. Jurkat cells (5×10^5 cells) were combined with the appropriate concentration of the test compound and 0.1 ml of the Jurkat cell-compound mixture was added to the endothelial cell monolayers. Generally, 100, 20, 5 and 1.25 μM compound concentrations were tested. […] The plates were placed on ice for 5 minutes to allow for Jurkat cell settling and the plates were incubated at 37° C. for 20 minutes. Following this incubation, the monolayers were washed twice with PBS containing 1 mM calcium chloride and 1 mM magnesium chloride and the plates were read using a Millipore Cytofluor 2300 (Marlboro, Mass.). Fluorescence in each well was measured as Arbitrary Fluorescence Units and percent adhesion in the absence of compound was adjusted to 100% and the % adhesion in the presence of compound was calculated. Monolayers were also fixed in 3% paraformaldehyde and evaluated microscopically to verify the adhesion. This procedure is a modification of a previously published method (Cardarelli et al., J. Biol. Chem. 269:18668-18673 (1994)).

Sequences of proteins named here, by UniProt entry; tags and fusion partners are left off. Residues count along the entry.
UniProt P05556, 21-798 limits assumed: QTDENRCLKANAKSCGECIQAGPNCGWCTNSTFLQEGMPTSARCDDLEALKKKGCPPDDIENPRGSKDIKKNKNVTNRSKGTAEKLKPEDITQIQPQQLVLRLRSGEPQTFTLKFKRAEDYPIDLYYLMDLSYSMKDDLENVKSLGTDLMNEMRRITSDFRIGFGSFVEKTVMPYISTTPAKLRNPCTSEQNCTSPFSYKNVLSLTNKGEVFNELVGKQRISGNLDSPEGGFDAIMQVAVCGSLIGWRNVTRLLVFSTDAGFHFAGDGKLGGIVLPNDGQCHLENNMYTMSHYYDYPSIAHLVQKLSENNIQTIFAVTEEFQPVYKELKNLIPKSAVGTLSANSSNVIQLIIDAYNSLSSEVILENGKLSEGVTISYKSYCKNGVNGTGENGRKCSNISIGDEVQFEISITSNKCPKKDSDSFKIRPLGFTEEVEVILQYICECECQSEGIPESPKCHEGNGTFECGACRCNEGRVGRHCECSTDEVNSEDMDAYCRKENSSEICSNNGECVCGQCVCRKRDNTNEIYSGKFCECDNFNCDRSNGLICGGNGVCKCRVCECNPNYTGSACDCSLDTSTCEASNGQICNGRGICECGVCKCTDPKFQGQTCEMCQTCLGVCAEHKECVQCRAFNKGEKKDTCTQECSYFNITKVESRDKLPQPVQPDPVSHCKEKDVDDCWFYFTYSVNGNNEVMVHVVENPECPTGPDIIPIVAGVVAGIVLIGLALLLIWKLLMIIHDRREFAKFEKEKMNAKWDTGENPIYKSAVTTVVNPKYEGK
UniProt P13612, 34-1032 limits assumed: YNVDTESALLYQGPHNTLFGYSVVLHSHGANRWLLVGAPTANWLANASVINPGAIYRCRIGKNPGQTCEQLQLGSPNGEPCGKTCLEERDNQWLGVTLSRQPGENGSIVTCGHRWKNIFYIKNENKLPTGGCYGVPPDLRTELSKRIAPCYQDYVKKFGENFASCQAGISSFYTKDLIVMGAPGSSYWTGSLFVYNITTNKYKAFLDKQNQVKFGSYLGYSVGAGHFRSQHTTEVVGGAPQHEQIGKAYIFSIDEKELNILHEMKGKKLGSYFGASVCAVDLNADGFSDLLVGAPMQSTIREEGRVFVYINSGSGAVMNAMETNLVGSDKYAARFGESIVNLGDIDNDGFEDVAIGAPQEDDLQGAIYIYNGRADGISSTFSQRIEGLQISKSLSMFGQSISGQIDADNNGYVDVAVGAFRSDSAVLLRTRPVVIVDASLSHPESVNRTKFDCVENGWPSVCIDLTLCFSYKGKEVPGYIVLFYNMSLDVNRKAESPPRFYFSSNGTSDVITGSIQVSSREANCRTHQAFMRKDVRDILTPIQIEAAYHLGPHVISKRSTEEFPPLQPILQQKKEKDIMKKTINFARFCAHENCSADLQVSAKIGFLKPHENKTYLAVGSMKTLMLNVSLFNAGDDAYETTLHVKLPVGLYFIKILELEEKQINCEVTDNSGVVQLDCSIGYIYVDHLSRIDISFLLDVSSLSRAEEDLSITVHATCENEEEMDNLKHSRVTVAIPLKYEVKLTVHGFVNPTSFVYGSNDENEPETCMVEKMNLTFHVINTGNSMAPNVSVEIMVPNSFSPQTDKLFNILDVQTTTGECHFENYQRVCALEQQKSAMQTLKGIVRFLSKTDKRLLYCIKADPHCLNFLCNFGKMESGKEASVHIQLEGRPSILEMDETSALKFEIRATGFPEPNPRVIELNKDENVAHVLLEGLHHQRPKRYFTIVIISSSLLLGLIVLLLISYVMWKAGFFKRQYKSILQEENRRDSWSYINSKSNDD

Test [2] concerns the target α4β1 integrin (Jurkat cell adhesion to immobilized CS-1 derived peptide CLHPGEILDVPST) (Homo sapiens, UniProt P05556+P13612). As to the kind of experiment: Jurkat-CS-1 Assay. The conditions noted are these: read-out: IC50 Jurkat CS-1; Jurkat cells on CS-1 peptide coated plates. As to the method:
The CS-1 derived peptide, CLHPGEILDVPST, and the scrambled control peptide, CLHGPIELVSDPT, were synthesized on a Beckman 990 synthesizer using t-Boc methodology. The peptides were immobilized onto microtiter plates using the heterobifunctional crosslinker 3-(2-pyridyldithio)propionic acid N-hydroxysuccinimide ester (SPDP) as reported by Pierschbacher et al., Proc. Natl. Acad. USA, 80:1224-1227 (1983). Microtiter plates were coated with 20 μg/ml HSA for 2 hr. at room temperature, washed once with PBS and derivatized with 10 μg/ml SPDP for 1 hr. After washing, 100 μl of a 100 μg/ml cysteine containing peptide solution which had been recently dissolved was added to the wells and allowed to crosslink to the plates overnight at 4° C. Unbound peptide was removed from plates by washing with PBS. To block non-reacted sites, the plates are coated with 100 μl of a 2.5 mg/ml BSA solution in PBS for 1 hr. at 37° C. 100 μl of Jurkat cells (2.5×10^6 cells/ml) in DMEM plus BSA (2.5 mg/ml) was mixed with an appropriate concentration of the compound to be tested and the mixture was added to peptide coated dishes and incubated for 1 hr. at 37° C. Generally 100, 20, 5 and 1.25 μM concentrations of the compound were tested.
Following this incubation the plates were washed once with PBS and the attached cells were fixed with 3% paraformaldehyde in PBS and stained with 0.5% toluidine blue in 3.7% formaldehyde. The cells were stained overnight at room temperature and the optical density at 590 nm of toluidine blue stained cells was determined using a vertical pathway spectrophotometer to quantitate attachment (VMAX Kinetic Microplate Reader, Molecular Devices, Menlo Park, Calif.). This procedure is a modification of a previously published method (Cardarelli et al, J. Biol. Chem., 269:18668-18673 (1994) and Cardarelli et al, Proc. Natl. Acad. Sci. USA, 83:2647-2651 (1986)).

Each structure is given as a SMILES string. Some results are limits rather than exact numbers.

Broadly, the IC50 is the point on the concentration scale where inhibition reaches its midpoint.

Consider `CC1C(C(=O)Nc2ccc(C[C@H](NC(=O)[C@H]3CC[C@@](C)(C(=O)O)C3(C)C)C(=O)O)cc2)=Cc2ccccc21` (stereo partly drawn), for which the IC50 is less than 0.8 µM in test [1] and less than 80 nM in test [2].

With `COC(=O)[C@H](Cc1ccc(NC(=O)c2cc(Br)ccc2Br)cc1)NC(=O)[C@H]1CC[C@@](C)(C(=O)O)C1(C)C`, the IC50 in test [1] lay within 5 to 10 µM.

On to `COC(=O)[C@H](Cc1ccc(OCc2c(Cl)cccc2Cl)c([N+](=O)[O-])c1)NC(=O)[C@H]1CC[C@@](C)(C(=O)O)C1(C)C`, for which, in test [1], the IC50 fell in the range of 5 to 10 µM.

For `COC(=O)[C@H](Cc1ccc(NC(=O)c2c(C)cccc2Cl)cc1)NC(=O)[C@H]1CC[C@@](C)(C(=O)O)C1(C)C`, the figures for the IC50 in test [1] and in test [2] were 0.8 to 5 µM and 80 to 500 nM, respectively.

As for `COC(=O)[C@H](Cc1ccc(NC(=O)c2cc(Cl)ccc2Cl)cc1)NC(=O)[C@H]1CC[C@@](C)(C(=O)O)C1(C)C`, the IC50 in test [2] is 500 to 1000 nM.

For the compound `COC(=O)[C@H](Cc1ccc(NC(=O)c2ccc(Cl)c(Cl)c2)cc1)NC(=O)[C@H]1CC[C@@](C)(C(=O)O)C1(C)C`, in test [2], the IC50 is 500 to 1000 nM.

Consider `CN(C)C(=O)[C@]1(C)CC[C@H](C(=O)N[C@@H](Cc2ccc(OCc3c(Cl)cccc3Cl)cc2)C(=O)O)C1(C)C`, for which, in test [1], the IC50 fell in the range of 0.8 to 5 µM.

Source of the values: patent publication US6482849B1, “Inhibitors of α4β1 mediated cell adhesion” (Tanabe Seiyaku Co., Ltd., priority 1997, dated 2002).
